Laboratory results reported in patent US5385922A, “Thiazolidine derivatives” (Cedona Pharmaceuticals B.V., priority 1990, dated 1995).

How the values were obtained:
contracted rat aorta = experiment: In vitro rat aorta assay: relaxation of aorta strips contracted with phenylephrine; assay type: cell-based; settings: read-out: EC50 (mean): concentration at which residual contraction is 50% of maximum; rat aorta strips contracted with 10^-7 M phenylephrine
Description: In the rat aorta assay, the compounds according to the invention are--in contrast to e.g. nifedipine--able to effect an up to 100% relaxation of a contraction of the rat aorta induced by phenylephrine.
Strips of thoracial rat aortae (without aortic arch, helically cut; length 1-1.5 cm; width about 2 mm) were place in an organ bath [20 ml; Krebs Ringer medium bubbled with O2 /CO2 (95/5%) at 37° C.]. A resting tension of 0.5 g was applied and the preparations were equilibrated during 100 min (fresh buffer solution every 20 min). The strips were isotonically contracted with 10^-7 M phenylephrine.
Drug-induced relaxation was tested at increasing concentration (half log steps), till maximal or full relaxation (corresponding to basal precontraction value of organ length) had been reached.
Responses were calculated as change in organ length relatively to maximal displacement by contraction, EC50 values corresponding to the drug concentration at which residual contraction is 50% of maximum.

arterial blood pressure = experiment: Anesthetized rabbit experiments: arterial blood pressure and heart rate after infusion; assay type: in vivo, New Zealand white rabbits; settings: end of 10 min infusion at highest dose tested (150-200 μg×kg^-1×min^-1), decrease as percentage of basal value; note: key: Inactive: No decrease or decrease less than 5%; Active: Decrease between 5 and 40%; Very Active: Decrease greater than 40%
Description: In the anesthetized rabbits, the decrease of arterial blood pressure and the effect on the heart rate after infusion of the test compounds was determined.
New Zealand white rabbits (2.5-3 kg) were anesthetized (30 mg×kg^-1 pentobarbitone, i.v., supplemental doses as needed). Tracheotomy was performed, and an intra-tracheal cannula was inserted. No artificial ventilation was applied and body temperature was maintained at 37°-38° C.
Left ventricular pressure (LVP) was measured (Millar Mikro-Tip catheter via the right carotid artery with transducer in the left ventricle). The LVP signal was differentiated electronically to obtain the rate of change of LVP (LV dP/dt). The heart rate (HR) was derived from the LVP pulse signal. The jugular vein was cannulated for infusion of the test compounds. Aortic blood pressure (SAP and DAP) was monitored (Gould-Statham pressure transducer) by inserting a polyethylene catheter filled with heparin (50 IU×ml^-1) through the femoral artery into the abdominal aorta. Heparin (150 IU×kg^-1, i.v.) was administered to prevent blood clotting.
After completion of surgical procedures, the rabbits were allowed to recover for 15 minutes before drug administration was started.
Drugs were infused at constant rate (0.5 ml×min^-1) for 10 minutes at various doses, resulting in a typical dose range of 2.0, 20.0 and 200 μg×kg^-1 ×min^-1 (2.5 kg rabbit). […]

O=C(O)C1CSC(c2cc([N+](=O)[O-])cc([N+](=O)[O-])c2OCCO[N+](=O)[O-])N1 (centres unmarked)
EC50 (contracted rat aorta): 220 nM
Activity with regard to the lowering of blood pressure (arterial blood pressure): Active
